According to ChEMBL document CHEMBL1150411, “4-(Phenylaminomethylene)isoquinoline-1,3(2H,4H)-diones as potent and selective inhibitors of the cyclin-dependent kinase 4 (CDK4)” (J Med Chem, 2008):

How the values were obtained:
MCF7 = assay: Antiproliferative activity against human MCF7 cells by SRB method; assay type: functional, cell-based
How it was run: (§1)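 Cell growth in 96-well plates measured by sulforhodamine B: cells TCA-fixed, stained with 0.4% SRB, washed in 1% acetic acid, bound dye solubilized in 10 mM Tris, absorbance read. MCF-7 kept in RPMI with 10% FBS, 37 °C, 5-7% CO2.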

HCT-116 = assay: Antiproliferative activity against human HCT116 cells by SRB method; assay type: functional, cell-based; how it was run: as §1

| SMILES | IC50 (MCF7) [µM] | IC50 (HCT-116) [µM] |
| --- | --- | --- |
| CN1CCN(c2ccc(N/C=C3\C(=O)NC(=O)c4ccc(I)cc43)cc2)CC1 | 2.5 | 2.8 |
| CN1CCN(c2ccc(N/C=C3\C(=O)NC(=O)c4ccc(-c5ccccc5)cc43)cc2)CC1 | 7.3 | 2.8 |
| C[C@@H]1CN(c2ccc(N/C=C3\C(=O)NC(=O)c4ccc(I)cc43)cc2)C[C@H](C)N1 | 1.6 | 0.76 |
| C[C@@H]1CN(c2ccc(N/C=C3\C(=O)NC(=O)c4ccc(I)cc43)cc2)C[C@H](C)N1C | 1.3 | 2.1 |
| O=C1NC(=O)c2ccc(-c3ccccc3)cc2/C1=C/Nc1ccc(CN2CCCCC2)cc1 | 2.9 | 2.4 |
| CN1CCN(c2ccc(N/C=C3\C(=O)NC(=O)c4ccc(-c5ccoc5)cc43)nc2)CC1 | 1.6 | 0.76 |

Continued, values first:

| IC50 (MCF7) [µM] | IC50 (HCT-116) [µM] | SMILES |
| --- | --- | --- |
| 1.9 | – | CC1CN(c2ccc(N/C=C3\C(=O)NC(=O)c4ccc(I)cc43)cc2)CCN1C (stereo not drawn) |
| – | 1.6 | O=C1NC(=O)c2ccc(-c3ccc(O)cc3)cc2/C1=C/Nc1ccc(CN2CCCCC2)cc1 |
| 1.7 | 2.1 | CN1CCN(c2ccc(N/C=C3\C(=O)NC(=O)c4ccc(-c5ccoc5)cc43)cn2)CC1 |
| 2.3 | 1.5 | O=C1NC(=O)c2ccc(Nc3ccccc3)cc2/C1=C/Nc1ccc(CN2CCCCC2)cc1 |
